The results in this text go back to PubChem BioAssay AID493140 (UCLA Molecular Screening Shared Resource, 2011).

The entries are a selection whose mix differs from that of the whole data set. Active and inactive are the calls of the source. No rule for the calls is given here.

This assay in a line: hESC survival regulators, cell-based (AID 493140).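 Also: cells exposed to compounds for four days before counting.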 The settings on record: human embryonic stem cell survival screen; stronger effect = higher value.
Turning to `C/C1=C2N=C(/C=C3N=C(/C(C)=C4\[N-][C@@](C)([C@@H]5N=C1[C@](C)(CCC(=O)NC[C@@H](C)OP(=O)([O-])O[C@H]1[C@@H](O)[C@@H](n6cnc7cc(C)c(C)cc76)O[C@@H]1CO)[C@H]5CC(N)=O)[C@@](C)(CC(N)=O)[C@@H]4CCC(N)=O)[C@@](C)(CC(N)=O)[C@@H]\3CCC(N)=O)C(C)(C)[C@@H]/2CCC(N)=O.[C-]#N.[Co+3]`, the survival was inactive: 14.
